Results reported in US10869871B2, “Compositions and methods of modulating short-chain dehydrogenase activity” (CASE WESTERN RESERVE UNIVERSITY, priority 2013, dated 2020).

The chains behind the UniProt entries cited, without tags or fusion partners.
UniProt P15428, whole entry: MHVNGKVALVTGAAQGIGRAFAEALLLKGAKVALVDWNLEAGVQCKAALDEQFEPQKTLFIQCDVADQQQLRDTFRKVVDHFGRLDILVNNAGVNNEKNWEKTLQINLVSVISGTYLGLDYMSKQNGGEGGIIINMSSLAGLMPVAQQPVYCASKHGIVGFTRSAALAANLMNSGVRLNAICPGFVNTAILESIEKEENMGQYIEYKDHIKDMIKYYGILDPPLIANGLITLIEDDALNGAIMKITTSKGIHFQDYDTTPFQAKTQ

Experiments:
15-PGDH protein = test: Western blot of 15-PGDH protein levels in treated cell lines; assay type: cell-based; conditions: V400-S3-2-32 cells, 5 μM
[1] = test system: 15-PGDH activity in cell lines; test: Total 15-PGDH activity in lysed pellets of compound treated cell lines (tritium method); assay type: cell-based; conditions: FIG. 13
recombinant 15-PGDH = recombinant 15-PGDH (Homo sapiens (Human), UniProt P15428); test: Thermal melt shift of recombinant 15-PGDH protein (SYPRO Orange); assay type: binding; conditions: 10 μM and 100 μM cofactor NAD or NADH
A549 cells = test: PGE2 levels in medium of IL1-beta stimulated A549 cells; assay type: cell-based; conditions: IL1-beta 23 hours, compound added for last 5 hours

## COc1ccc(-c2cc(C(F)(F)F)n3nc(C(=O)N4CCCCC4)cc3n2)cc1
15-PGDH protein
  levels of 15-PGDH protein (wt-PGDH) expressed from cDNA vector: increases levels of 15-PGDH protein (wt-PGDH)
[1]
  15-PGDH activity in treated cells: increasing 15-PGDH activity in most cell lines
Recombinant 15-PGDH
  direct binding to 15-PGDH by melting temperature shift: show evidence of direct binding to 15-PGDH
A549 cells
  PGE2 level in medium, reflecting 15-PGDH activity: clear inhibition of 15-PGDH activity
